The target in test [1] is human ETA-receptor (ET-receptor derived from phETIR) (human) (UniProt P25101). Briefly: cell-bound radioactivity, 50 pM 125I-ET-1 on COS-7 cells expressing the ETA-receptor.
Test [2] has the same target. Briefly: cell-bound radioactivity, 50 pM 125I-ET-1 on COS-7 cells expressing the ETA-receptor, with 4×10^-7 M unlabeled ET-1.
Test [3] concerns the target human ETB-receptor (ET-receptor derived from pHETBR31 and pHETBR34) (human) (UniProt P24530). Kind of test: displacement of 125I-ET-1 from COS-7 cells expressing the ETB-receptor. In general terms: Loss of bound radioactivity is the signal in a displacement assay; it reports binding, not function.
Test [4] addresses human ETA-receptor (ET-receptor derived from phETIR) (human) (UniProt P25101). Briefly: displacement of 50 pM 125I-ET-1 from COS-7 cells expressing the ETA-receptor.

Amino acid sequences for entries named in this document (tags omitted). Chains listed by the source or under a name are the forms on record and can include a tag or linker. Residues count along the entry.
UniProt P25101, 21-427 limits assumed, form in doubt: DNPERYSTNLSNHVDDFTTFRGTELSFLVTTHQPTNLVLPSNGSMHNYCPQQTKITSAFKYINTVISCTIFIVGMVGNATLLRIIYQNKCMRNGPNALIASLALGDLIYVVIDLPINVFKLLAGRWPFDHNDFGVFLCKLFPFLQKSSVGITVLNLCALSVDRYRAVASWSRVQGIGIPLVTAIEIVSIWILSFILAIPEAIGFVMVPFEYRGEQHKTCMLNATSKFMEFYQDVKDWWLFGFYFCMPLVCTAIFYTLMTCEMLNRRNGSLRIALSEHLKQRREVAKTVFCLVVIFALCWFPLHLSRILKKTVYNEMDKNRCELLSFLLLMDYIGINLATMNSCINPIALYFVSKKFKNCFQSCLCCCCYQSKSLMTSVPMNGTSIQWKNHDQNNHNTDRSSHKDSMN
UniProt P24530, 27-442 limits assumed, form in doubt: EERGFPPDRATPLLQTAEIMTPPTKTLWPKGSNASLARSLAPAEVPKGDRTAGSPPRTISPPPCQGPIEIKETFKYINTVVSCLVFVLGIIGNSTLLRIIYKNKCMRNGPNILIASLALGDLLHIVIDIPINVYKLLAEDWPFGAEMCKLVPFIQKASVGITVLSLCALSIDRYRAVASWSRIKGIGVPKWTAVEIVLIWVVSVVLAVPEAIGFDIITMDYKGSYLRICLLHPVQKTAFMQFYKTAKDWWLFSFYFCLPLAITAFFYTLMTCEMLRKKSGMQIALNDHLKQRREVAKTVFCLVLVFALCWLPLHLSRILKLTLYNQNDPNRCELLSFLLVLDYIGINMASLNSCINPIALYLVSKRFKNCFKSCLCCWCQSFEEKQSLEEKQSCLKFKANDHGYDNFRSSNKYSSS

As to “125I-labeled ET-1 (from UniProt P05305 53-73) (peptide)”, in test [1], the total binding was determined as 6900 cpm. The background binding in the presence of 4×10^-7 M ET-1 in test [2] is 150 cpm.
As a reminder, the IC50 is the concentration needed to halve the response being measured. Take “Endothelin 1 (from UniProt P05305 53-73) (peptide)”: the values for the concentration for half-maximal inhibition (IC50) in test [3] and in test [4] were 1 nM and 3 nM, respectively.

Values taken from US20020082414A1.
